Measured values published in PMC9730857 (ACS chemical neuroscience, 2022).

Protein sequences, listed by entry. Tags and fused reporters are not part of them.
UniProt Q923Y9, whole entry: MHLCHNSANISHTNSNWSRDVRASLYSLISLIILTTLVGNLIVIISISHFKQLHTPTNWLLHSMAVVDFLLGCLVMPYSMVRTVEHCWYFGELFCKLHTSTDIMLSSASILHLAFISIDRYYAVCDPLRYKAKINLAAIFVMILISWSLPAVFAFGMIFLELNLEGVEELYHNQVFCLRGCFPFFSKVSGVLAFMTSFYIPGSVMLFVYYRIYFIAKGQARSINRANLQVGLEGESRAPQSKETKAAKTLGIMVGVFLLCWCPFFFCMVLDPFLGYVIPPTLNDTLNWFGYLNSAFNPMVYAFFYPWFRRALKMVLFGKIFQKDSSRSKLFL
UniProt Q923Y8, whole entry: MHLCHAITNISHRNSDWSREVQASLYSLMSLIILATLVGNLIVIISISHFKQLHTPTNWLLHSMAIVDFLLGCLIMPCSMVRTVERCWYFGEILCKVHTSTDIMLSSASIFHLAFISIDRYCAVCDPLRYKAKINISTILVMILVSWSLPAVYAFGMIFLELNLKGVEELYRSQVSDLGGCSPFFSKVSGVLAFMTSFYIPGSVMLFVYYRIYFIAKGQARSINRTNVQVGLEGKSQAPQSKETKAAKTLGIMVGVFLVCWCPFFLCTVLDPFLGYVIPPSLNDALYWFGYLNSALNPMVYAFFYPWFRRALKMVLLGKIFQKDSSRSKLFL

Key:
rTAAR1 = rTAAR1 (Rattus norvegicus, UniProt Q923Y9); test: [3H]RO5166017 radioligand binding, rTAAR1 membranes; settings: competition binding
mTAAR1 [1] = target: T1, mTAAR1 (Mus musculus, UniProt Q923Y8); test: [3H]RO5166017 radioligand binding, mTAAR1 membranes; settings: Ki values
mTAAR1 [2] = target: T1, mTAAR1; settings: literature value; cited from earlier work

| Compound | Effect on [3H]RO5166017 binding at rTAAR1 (rTAAR1) | fold more potent at hTAAR1 compared to mTAAR1 (binding) (mTAAR1 [1]) | Reduction of mTAAR1-stimulated cAMP production (inverse agonist activity) (mTAAR1 [2]) |
| --- | --- | --- | --- |
| N#Cc1c(C(F)(F)F)cc(-c2ccc(Cl)cc2)nc1SCC(=O)Nc1ncccn1 [Compound 34, 2-[[6-(4-chlorophenyl)-3-cyano-4-(trifluoromethyl)-2-pyridinyl]thio]-N-2-pyrimidinylacetamide] | potentiates [^3H]RO5166017 binding at rTAAR1 | 463 fold |  |
| CCOc1cccc(NC(=O)c2ccc(N3CCCC3)c(C(F)(F)F)c2)c1 [EPPTB, N-(3-ethoxyphenyl)-4-(pyrrolidin-1-yl)-3-trifluoromethylbenzamide] |  |  | −12.3% and −12.3 ± 4.7% |

Values joined by “and” are separate entries in the source; they are usually repeats but may differ in a detail not shown here. Equal values may be shown once.
